From patent US20040156869A1, “2-substituted quinazolin-4-ylamine analogues” (Neurogen Corporation, priority 2002, published 2004) come the findings set out here.

Chains of the proteins cited; added tags and fusions are not shown.
UniProt Q8NER1, whole entry: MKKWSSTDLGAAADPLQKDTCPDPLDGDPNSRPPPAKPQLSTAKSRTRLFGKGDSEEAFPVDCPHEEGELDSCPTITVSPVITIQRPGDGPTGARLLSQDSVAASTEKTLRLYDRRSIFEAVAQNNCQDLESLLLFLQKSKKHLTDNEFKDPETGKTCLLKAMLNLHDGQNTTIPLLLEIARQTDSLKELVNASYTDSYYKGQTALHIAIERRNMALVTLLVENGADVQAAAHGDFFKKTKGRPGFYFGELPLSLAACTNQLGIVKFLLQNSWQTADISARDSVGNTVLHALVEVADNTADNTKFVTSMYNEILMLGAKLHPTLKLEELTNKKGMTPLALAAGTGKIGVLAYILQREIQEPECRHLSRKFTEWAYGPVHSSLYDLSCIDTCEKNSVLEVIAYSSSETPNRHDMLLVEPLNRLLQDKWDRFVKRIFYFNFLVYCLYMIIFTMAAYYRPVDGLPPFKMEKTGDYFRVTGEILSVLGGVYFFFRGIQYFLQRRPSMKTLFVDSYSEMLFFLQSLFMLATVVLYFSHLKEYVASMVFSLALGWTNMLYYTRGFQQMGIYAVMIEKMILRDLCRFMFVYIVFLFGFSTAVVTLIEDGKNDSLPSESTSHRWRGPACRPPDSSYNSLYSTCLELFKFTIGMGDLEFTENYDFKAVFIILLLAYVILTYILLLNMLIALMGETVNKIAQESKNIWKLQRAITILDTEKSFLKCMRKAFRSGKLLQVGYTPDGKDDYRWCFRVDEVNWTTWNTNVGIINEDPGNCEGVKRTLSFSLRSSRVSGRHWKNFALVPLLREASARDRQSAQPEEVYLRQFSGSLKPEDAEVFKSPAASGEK

The target of the assay is human capsaicin receptor (VR1) (Homo sapiens, UniProt Q8NER1). The assay can be described thus: Capsaicin receptor binding assay ([3H]RTX competition, VR1-transfected HEK293 membranes).
[1] abbreviates: Table II, determined as described in Example 5.

By Ki is commonly meant a dissociation constant, usually derived from enzyme kinetics or from competition with a known ligand. Higher therefore signals lower affinity. For the setting “Table III, capsaicin receptor binding”, `FC(F)(F)c1ccc(Nc2nc(Cn3ccnc3)nc3cc(-c4ncccc4C(F)(F)F)ccc23)cc1` registered a Ki of under 1000 nM.

For `CCOC(=O)c1cc2nc(-c3ncccc3C(F)(F)F)ccc2c(Nc2ccc(C(F)(F)F)cc2)n1`, the Ki under setting [1] is under 1000 nM. Same read-out and setting: for `C#Cc1ccc(Nc2nc(COCC(C)C)nc3nc(-c4ncccc4Cl)ccc23)cc1` the value was under 1000 nM.
